PMC6923452, “SHBG141–161 Domain-Peptide Stimulates GPRC6A-Mediated Response in Leydig and β-Langerhans cell lines” (Scientific Reports, 2019)

Test system: MA-10 cells
Assay: Testosterone (T) release from Leydig MA-10 cells (GPRC6A-mediated)
Format: cell-based, Mouse
Details: hCG 2,5 nM; 48 hours; reference agonist
From the text: Human ucOCN was obtained from chemical decarboxylation of cxOCN, purchased from Bachem AG (Bachem, Bubendorf, Switzerland), as previously described. For displacement experiments, an aliquot ucOCN underwent chemical biotinylation as previously described[9],[41]. Unliganded human SHBG was purchased by […], Belgium). Human chorionic gonadotropin Gonasi was purchased by IBSA Farmaceutici Srl (Italy). […] After extensive washing, primary immunoreaction was detected by appropriate secondary reagent, respectively: biotin conjugated-anti rabbit IgG (dilution 1:100; Vector Laboratories, Peterborough, UK; RRID: BA-1000) followed by Streptavidin […], (dilution 1:100; GeneTex/Prodotti Gianni, Milano, Italy; RRID: GTX85907) and FITC conjugated-anti goat IgG (dilution 1:100; Abcam, Milan, Italy; RRID: ab6737). Samples were then counterstained with 4',6-diamidino-2-phenylindole (DAPI), mounted with anti-fade buffer and then analyzed with Video-Confocal (VICO) fluorescence microscope (Nikon, Firenze, Italy). […] Results of binding and stimulation experiments are reported as mean values ± standard deviation (SD) of five independent experiments, expressed as fold increase with respect of basal conditions.

hCG: Human chorionic gonadotropin Gonasi was purchased by IBSA Farmaceutici Srl [reference compound]
T release vs basal: efficiently stimulated T release
